Measurements: patent US20240226175A1, “THERAPEUTIC AGENT USING GENOME-EDITED PLURIPOTENT STEM CELL” (KEIO UNIVERSITY, priority 2020, published 2024)

System: glioma cell lines U87, U251, SF126, hG008, hG021, GL261, TSG
Conditions: CCK-8 assay

O=c1[nH]cc(F)c(=O)[nH]1 [5-FU, 5-fluorouracil]
order of susceptibility of glioma cell lines to 5-FU: (favorable) GL261, TSG, hG008, U87 and U251 (unfavorable)
